The target of one assay is BRD4 BD1 (Homo sapiens, UniProt O60885). The note with it: ITC, 30 °C. How it is done:
(§1) Figure 1 Design, synthesis, and biophysical and biological evaluation of BET bromodomain PROTACs.
(§2) To assess whether PROTAC molecules retained their binding to the target proteins VHL and BET bromodomains in a similar fashion as the parental ligands, isothermal titration calorimetry (ITC) experiments were performed (Figure 1; all ITC titrations are shown in the Supporting Information).
(§3) 50 μg/mL of kanamycin. Cell growth was allowed at 37 °C and 200 rpm to an optical density of about 2.5 (OD600), at which point temperature was decreased to 18°C. Once the cultures equilibrated at 18 °C, protein expression was induced overnight at 18 °C with 0.4 mM isopropyl-β-thiogalactopyranoside (IPTG). The bacteria was harvested the next day by centrifugation (8000 rpm for 10 minutes at 6 °C, JLA 8.1000 rotor on a Beckman Coulter Avanti J-20 XP centrifuge) and frozen at -20 °C as pellets for storage. Pellets of cells expressing His6-tagged proteins were resuspended in lysis buffer (50 mM HEPES pH 7.5 at 25 °C, 150 mM NaCl, 40 mM Imidazole and 2 mM β-mercaptoethanol). One tablet of Complete Protease Inhibitor Cocktail (Roche) was added to the resuspension and cells were lysed using a French Press at 4 °C.
(§4) Following a 20 min incubation period at room temperature with 10 μg/mL DNaseI and 10 mM MgCl2, the cell debris was removed by centrifugation, 20,000 x g at 4 °C. The lysate was purified via immobilized metal ion affinity chromatography on a His Trap HP 5mL Ni sepharose column (GE Healthcare Life Sciences) on an ÄKTApure system (GE Healthcare). His6-tagged protein was eluted using a linear gradient to 250 mM imidazole in the same buffer. After Ni purification, the pooled elution fractions were concentrated to a volume of 4 mL and further purified by size exclusion chromatography on a Superdex 75 16/60 Hiload gel filtration column (GE Healthcare) on an ÄKTApure system using the following buffer: 20 mM HEPES pH 7.5, 150 mM NaCl.
(§5) Samples were monitored by SDS-polyacrylamide gel electrophoresis to verify purity. Pure protein was then flash frozen with liquid nitrogen and stored at -80 °C. The mass and purity of the proteins were subsequently verified by mass spectrometry.
(§6) Isothermal Titration Calorimetry (ITC):
(§7) ITC experiments were carried out at an ITC 200 instrument from MicroCalTM with a […]
(§8) Experiments were conducted as PROTAC compound into protein titrations, except in the case of MZ3 where protein was titrated into PROTAC. BET protein experiments were conducted in a buffer containing 20 mM HEPES with 100 mM NaCl at pH 7.5 and a temperature of 30 °C. VBC protein experiments were carried out in a buffer containing 20 mM Bis-Tris, 150 mM NaCl and 2 mM Dithiothreitol (DTT) at pH 7 and a temperature of 25 °C.
A general note: In ITC the heat of successive injections is recorded.

The target of the next assay is BRD3 BD2 (Homo sapiens, UniProt Q15059). The note with it: ITC, 30 °C. As for the experimental part: as §1, §2, §3, §4, §5, §6, §7, §8
Another assay concerns the target BRD2 BD1 (Homo sapiens, UniProt P25440). The note with it: ITC, 30 °C. How it is done:
as §1, §2, §3, §4, §5, §6, §7, §8

For the next assay, the target named is BRD4 BD2 (Homo sapiens, UniProt O60885). As to conditions: ITC, 30 °C. As for the experimental part:
as §1, §2, §3, §4, §5, §6, §7, §8

A further assay deals with BRD3 BD1 (Homo sapiens, UniProt Q15059). The note with it: ITC, 30 °C. How it is done: as §1, §2, §3, §4, §5, §6, §7, §8
For another assay, the target named is BRD2 BD2 (Homo sapiens, UniProt P25440). The note with it: ITC, 30 °C. How it is done:
as §1, §2, §3, §4, §5, §6, §7, §8

The next assay has as its target BRD4 (Homo sapiens, UniProt O60885). As to conditions: HeLa cells. As for the experimental part:
100U/ml of penicillin/streptomycin. […]
harvested after 48 hours for gene expression study.
Single time point treatment […]
concentrated compound solution in media. The final DMSO concentration was 0.01 % v/v. […]
concentrated compound solution in media. Treatment was conducted at given time points prior […]
Protein recovery experiment […]
treatment. Cells were harvested at given time points. […]
washed twice with ice cold PBS.
After removal of the insoluble
PierceTM BCA Protein Assay Kit. […]
ab109027, EPR6089) 1:50000.
Between incubation with the different antibodies
RNA extraction and real-time PCR
After treatment described

The values below come from publication PMC4548256, “Selective Small Molecule Induced Degradation of the BET Bromodomain Protein BRD4” (ACS Chemical Biology, 2015).

As to `Cc1ncsc1-c1ccc(CNC(=O)[C@@H]2C[C@@H](O)CN2C(=O)[C@@H](NC(=O)COCCOCCOCCNC(=O)C[C@@H]2N=C(c3ccc(Cl)cc3)c3c(sc(C)c3C)-n3c(C)nnc32)C(C)(C)C)cc1` [MZ1], the ΔG was -8.91 ± 0.02 kcal/mol on BRD4 BD1; -9.63 ± 0.06 kcal/mol at BRD3 BD2; -9.61 ± 0.04 kcal/mol on BRD4 BD2; -9.62 ± 0.02 kcal/mol on BRD3 BD1; -9.22 ± 0.05 kcal/mol on BRD2 BD2. In addition, the ΔS was 1.04 ± 0.13 cal/mol∙K on BRD4 BD1; -4.29 ± 0.38 cal/mol∙K on BRD2 BD1; 9.04 ± 0.16 cal/mol∙K on BRD4 BD2; -4.40 ± 0.20 cal/mol∙K on BRD3 BD1; 10.3 ± 0.2 cal/mol∙K at BRD2 BD2. Moreover, the ΔH at BRD4 BD1 (protein 15 μM, ligand 150 μM) is listed as -8.59 ± 0.03 kcal/mol; at BRD3 BD2 (protein 15 μM, ligand 150 μM), -8.32 ± 0.05 kcal/mol; at BRD2 BD1 (protein 15 μM, ligand 150 μM) it was -10.0 ± 0.1 kcal/mol; at BRD4 BD2 (protein 15 μM, ligand 150 μM), -6.86 ± 0.03 kcal/mol; at BRD3 BD1 (protein 15 μM, ligand 150 μM), -10.0 ± 0.06 kcal/mol; at BRD2 BD2 (protein 15 μM, ligand 150 μM), -6.08 ± 0.04 kcal/mol. Further, the “time to detectable recovery of intracellular BRD4 after washout” value on BRD4 (1 μM for 4 h, then compound removed from media, monitored 48 h) came out at 20 h. On BRD4 (1 μM single treatment, no exchange of media, after 48 h), the “BRD4 protein level without wash step” value was “no protein could be detected”.
